scFv variants of Ab-14 (heavy chain) against a SARS-CoV-2 spike peptide

Target peptide (SARS-CoV-2 spike, HR2 region): PDVDLGDISGINAS

The variants keep the light chain, the linker and the frameworks of Ab-14 (scFv order VH, a (GGGGS)3 linker, VL).
VH: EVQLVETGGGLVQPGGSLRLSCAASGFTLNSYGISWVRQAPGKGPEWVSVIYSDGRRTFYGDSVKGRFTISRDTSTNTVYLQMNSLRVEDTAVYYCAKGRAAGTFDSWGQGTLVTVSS
VL: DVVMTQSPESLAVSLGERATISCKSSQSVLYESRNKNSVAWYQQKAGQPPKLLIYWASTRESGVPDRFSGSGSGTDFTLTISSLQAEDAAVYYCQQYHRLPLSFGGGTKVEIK

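The starting antibody came from a phage panning campaign against this peptide. The variants were designed computationally from a first round of random CDR variants and then made and measured. Their group label is 14H_En_Gen (En: ensemble of fine-tuned language models; Gen: genetic algorithm). Affinity was read by AlphaSeq, a pooled yeast mating assay with surface-displayed partners. The frequency of each diploid, read from paired DNA barcodes, reflects how well the two displayed proteins bind. Scores were corrected for input abundance and mapped to Kd with protein pairs of known affinity run in the same pool. The assay was run in six technical replicates.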

Variants are written as CDR1, CDR2 and CDR3 of the heavy chain (limits as in the source). Parent: GFTLNSYGIS, VIYSDGRRTFYGDSVK, GRAAGTFDS. Scale: log10 of Kd in nM, estimated from mating counts; low values are strong binders. A mean of the replicates is given; it leaves out those without a signal. An entry "n.d." has no value in the source: the pair was not observed among the diploids in that replicate. This suggests poor binding but is not conclusive. Values of this round are not directly comparable with the first-round values of the same sequences. Three control strains display no target. For all heavy chain designs, 1% of the pairings with them gave a signal, with a median of 2.08 and one signal in twenty below 0.84, so weak values seen in few replicates may be background. The control count says in how many pairings with the empty strains this scFv gave a signal, with their mean in brackets. The authors averaged sequences with at least three values out of six and counted those with two or fewer as poor binders.

CDR-H1 | CDR-H2 | CDR-H3 | log10 Kd (nM) by replicate | log10 Kd (nM), mean | empty controls
GFDLNEYGIS | VIYADGMRTAYADSVK | GNIAGTFDT | -0.19 0.23 -0.37 -0.18 -0.40 -0.21 | -0.19 | 0 of 18
GFDLNEYGIS | VIYADGKRTAYADDVK | GQNAGTFDI | -0.27 -0.72 -0.88 -0.23 -0.97 -0.63 | -0.62 | 0 of 18
GFDLNEYGIS | VIYADGKRTFYADSVK | GNTAGTFDV | -0.11 -0.32 0.10 -0.32 -0.46 0.01 | -0.18 | 0 of 18
GFDLNEYGIS | VIYADGVRKAYADSVK | GNNAGTFDV | -0.33 -0.74 -0.84 -0.51 -0.74 -0.36 | -0.58 | 0 of 18
GFDLNEYGIS | VIYADGMRTAYADSVK | GNIAGTFDM | -0.18 -0.20 -0.48 -0.37 -0.50 -0.16 | -0.32 | 2 of 18 (3.91)
GFDLNEYGIS | VIYADGVRTAYADDVK | GEVAGTFDQ | -0.36 0.01 -1.01 -0.44 -0.41 -0.10 | -0.39 | 1 of 18 (0.89)
GFDLNEYGIS | VIYADGSRTAYVDSVK | GNVAGTFDV | -0.60 -0.34 -0.53 -0.48 -0.67 -0.42 | -0.51 | 0 of 18
GFDLDEYGIS | VIYADGQRTAYIDSVK | GNQAGTFDV | -0.03 -0.17 -0.37 -0.23 -0.16 -0.22 | -0.20 | 1 of 18 (1.62)
GFDLNEYGIS | VIYADGMRTAYTDSVK | GGNAGTFDI | -0.22 -0.54 -0.65 -0.94 -0.49 -0.59 | -0.57 | 1 of 18 (3.14)
GFDLNEYGIS | VIYADGQRTFYADSVK | GNTAGTFDV | -0.55 -0.56 -0.56 -0.60 -0.59 -0.54 | -0.57 | 0 of 18
GFDLNEYGIS | VIYADGMRTVYADSVK | GTNAGTFDL | -0.06 0.06 -0.11 -0.40 -0.07 0.19 | -0.07 | 0 of 18
GFDLDEYGIS | VIYADGRRTAYIDSVK | GNNAGTFDV | -0.08 -0.32 -0.25 -0.54 -0.48 -0.18 | -0.31 | 2 of 18 (2.86)
GFDLNEYGIS | VIYADGMRTAYADSVK | GETAGTFDQ | -0.41 -0.53 0.00 -0.46 -0.50 -0.33 | -0.37 | 1 of 18 (1.67)
GFDLNEYGIS | VIYADGMRTAYADKVK | GNVAGTFDL | 0.09 -0.72 -0.80 -0.36 -1.22 -0.73 | -0.62 | 0 of 18
GFDLDEYGIS | VIYADGMRTAYSDSVK | GNNAGTFDT | n.d. n.d. n.d. n.d. n.d. n.d. | n.d. | 0 of 18
GFDLNEYGIS | VIYADGVRTAYADSVK | GTNAGTFDT | -0.09 1.30 1.08 0.40 0.70 0.60 | 0.67 | 1 of 18 (2.07)
GFDLNEYGIS | VIYADGMRTAYADDVK | GHNAGTFDV | -0.93 -0.25 -0.88 -0.95 -0.96 -1.05 | -0.84 | 0 of 18
GFDLNEYGIS | VIYADGRRKAYADDVK | GNVAGTFDV | -0.12 n.d. -0.40 -0.14 -0.68 -0.22 | -0.31 | 0 of 18
GFDLDEYGIS | VIYADGKRTAYADSVK | GEVAGTFDQ | -0.07 0.23 -0.08 0.12 -0.13 0.15 | 0.04 | 0 of 18
GFDLNEYGIS | VIYADGKRTAYADSVK | GNLAGTFDV | -0.33 -0.26 -0.27 -0.55 -0.26 -0.25 | -0.32 | 0 of 18
GFDLNEYGIS | VIYADGMRTAYAESVK | GNVAGTFDL | -1.09 -0.72 -0.98 -0.75 -0.86 -0.39 | -0.80 | 0 of 18
GFDLNEYGIS | VIYADGSRTAYADSVK | GETAGTFDV | 0.02 -0.23 -0.37 -0.34 -0.32 0.07 | -0.20 | 0 of 18
GFDLNEYGIS | VIYADGRRTAYVDSVK | GNNAGTFDV | -0.61 -1.02 -1.06 -1.35 -0.88 -0.88 | -0.97 | 0 of 18
GFDLNEYGIS | VIYADGMRTAYADKVK | GNNAGTFDL | -0.39 -0.11 0.27 0.03 0.26 -0.02 | 0.01 | 0 of 18
GFDLNEYGIS | VIYADGMRTAYVDSVK | GQVAGTFDV | 0.22 -0.07 -0.46 -0.17 -0.54 -0.32 | -0.22 | 0 of 18
GFDLNEYGIS | VIYADGMRTYYSDSVK | GENAGTFDI | 0.65 0.48 0.52 0.21 0.49 0.36 | 0.45 | 0 of 18
GFDLNEYGIS | VIYADGKRTAYADDVK | GNQAGTFDL | -0.40 -0.83 -0.89 -0.36 -0.59 -0.54 | -0.60 | 0 of 18
GFDLNEYGIS | VIYADGQRTAYADNVK | GNVAGTFDT | -0.02 -0.05 -0.30 -0.24 -0.26 -0.07 | -0.16 | 0 of 18
GFDLNEYGIS | VIYADGKRTAYSDSVK | GNVAGTFDM | -0.56 -0.82 -0.30 -0.53 -1.09 -0.82 | -0.68 | 0 of 18
GFDLNEYGIS | VIYADGVRTAYTDSVK | GENAGTFDI | 0.63 -0.33 -0.29 -0.58 -0.73 0.26 | -0.17 | 0 of 18
GFDLNEYGIS | VIYADGSRTAYSDSVK | GNNAGTFDV | 0.69 0.07 -0.21 -0.34 -0.43 0.27 | 0.01 | 0 of 18
GFDLNEYGIS | VIYADGKRTAYADSVK | GANAGTFDI | -0.24 -0.28 -0.08 -0.49 -0.60 -0.23 | -0.32 | 0 of 18
GFDLDEYGIS | VIYADGLRTAYSDSVK | GENAGTFDV | 0.85 0.71 0.49 1.04 0.86 0.54 | 0.75 | 0 of 18
GFDLDEYGIS | VIYADGQRTAYADSVK | GEVAGTFDM | -0.36 -0.08 0.14 -0.51 -0.24 -0.10 | -0.19 | 1 of 18 (2.57)
GFDLDEYGIS | VIYADGKRTAYADSVK | GNQAGTFDT | -0.31 -0.27 -0.65 -0.20 -0.64 -0.64 | -0.45 | 0 of 18
GFDLNEYGIS | VIYADGMRTAYADDVK | GANAGTFDL | -0.21 -0.20 -0.38 -0.57 -0.39 -0.12 | -0.31 | 0 of 18
GFDLNEYGIS | VIYADGQRTAYADSVK | GNVAGTFDK | -0.15 -0.22 -0.52 -0.42 -0.22 -0.21 | -0.29 | 2 of 18 (2.10)
GFDLNEYGIS | VIYADGMRTAYADKVK | GNTAGTFDQ | -0.72 -0.99 -0.57 -1.09 -0.54 -0.61 | -0.75 | 0 of 18
GFDLNEYGIS | VIYADGKRTYYADSVK | GQVAGTFDV | n.d. 1.92 n.d. 1.89 n.d. 1.43 | 1.75 | 0 of 18
GFDLNEYGIS | VIYADGMRTAYADSVK | GNVAGTFDK | -0.66 -0.22 -0.70 -0.28 -0.73 -0.38 | -0.49 | 0 of 18
GFDLDEYGIS | VIYADGKRTAYADNVK | GETAGTFDV | 0.74 1.12 1.35 1.78 n.d. 0.78 | 1.15 | 1 of 18 (1.16)
GFDLNEYGIS | VIYADGRRTAYSDSVK | GNTAGTFDI | n.d. n.d. n.d. n.d. n.d. n.d. | n.d. | 0 of 18

The closing 6 entries, repeated:

CDR-H1,CDR-H2,CDR-H3,log10 Kd (nM) by replicate,"log10 Kd (nM), mean",empty controls
GFDLNEYGIS,VIYADGQRTAYADSVK,GNVAGTFDK,-0.15 -0.22 -0.52 -0.42 -0.22 -0.21,-0.29,2 of 18 (2.10)
GFDLNEYGIS,VIYADGMRTAYADKVK,GNTAGTFDQ,-0.72 -0.99 -0.57 -1.09 -0.54 -0.61,-0.75,0 of 18
GFDLNEYGIS,VIYADGKRTYYADSVK,GQVAGTFDV,n.d. 1.92 n.d. 1.89 n.d. 1.43,1.75,0 of 18
GFDLNEYGIS,VIYADGMRTAYADSVK,GNVAGTFDK,-0.66 -0.22 -0.70 -0.28 -0.73 -0.38,-0.49,0 of 18
GFDLDEYGIS,VIYADGKRTAYADNVK,GETAGTFDV,0.74 1.12 1.35 1.78 n.d. 0.78,1.15,1 of 18 (1.16)
GFDLNEYGIS,VIYADGRRTAYSDSVK,GNTAGTFDI,n.d. n.d. n.d. n.d. n.d. n.d.,n.d.,0 of 18

Source: Li et al. 2023 (doi:10.1038/s41467-023-39022-2), MIT Lincoln Laboratory and A-Alpha Bio; data file from the FLAb repository.